As a reminder, the Ki is the equilibrium dissociation constant of an inhibitor or competing ligand from its target. The term IC50 denotes the concentration that gives 50% inhibition. High values mean a need for much substance, low ones inhibition by little substance. In general, ED50 refers to the dose that gives a 50% effect, or the effect in half of the subjects.

Sequences of proteins named here, by UniProt entry; tags and fusion partners are left off.
UniProt P97266, whole entry: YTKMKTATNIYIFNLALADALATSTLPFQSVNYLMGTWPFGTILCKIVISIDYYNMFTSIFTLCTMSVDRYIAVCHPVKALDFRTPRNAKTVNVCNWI
UniProt P41144, whole entry: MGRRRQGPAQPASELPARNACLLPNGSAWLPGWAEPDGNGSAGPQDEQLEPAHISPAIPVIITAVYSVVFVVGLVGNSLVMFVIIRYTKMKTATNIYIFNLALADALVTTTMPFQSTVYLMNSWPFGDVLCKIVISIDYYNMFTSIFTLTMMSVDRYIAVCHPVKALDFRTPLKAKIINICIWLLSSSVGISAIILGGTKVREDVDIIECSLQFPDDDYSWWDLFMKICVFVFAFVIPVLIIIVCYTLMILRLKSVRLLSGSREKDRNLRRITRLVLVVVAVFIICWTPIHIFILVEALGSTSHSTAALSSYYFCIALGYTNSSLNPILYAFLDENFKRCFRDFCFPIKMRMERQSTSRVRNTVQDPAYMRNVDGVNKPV
UniProt P41143, whole entry: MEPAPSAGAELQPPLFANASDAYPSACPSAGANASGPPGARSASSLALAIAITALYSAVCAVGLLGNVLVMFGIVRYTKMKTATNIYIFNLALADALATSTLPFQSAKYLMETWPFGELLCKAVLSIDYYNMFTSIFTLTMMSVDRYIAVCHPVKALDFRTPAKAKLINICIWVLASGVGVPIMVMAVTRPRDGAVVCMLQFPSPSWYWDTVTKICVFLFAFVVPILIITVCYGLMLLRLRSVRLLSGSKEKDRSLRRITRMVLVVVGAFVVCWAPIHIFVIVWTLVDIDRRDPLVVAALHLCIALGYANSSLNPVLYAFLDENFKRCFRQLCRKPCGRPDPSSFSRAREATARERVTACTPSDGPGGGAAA

One experiment addresses Mu-type opioid receptor (Cavia porcellus, UniProt P97266). Description: Displacement of [3H]DAMGO from MOR in Hartley guinea pig membrane. On the technique in general: Displacement assays read how much labelled ligand stays bound in the presence of the test substance.
The target in experiment [1] is Kappa-type opioid receptor (Cavia porcellus, UniProt P41144). To be noted: Ileum.
In experiment [2] the target is Delta-type opioid receptor (Homo sapiens, UniProt P41143). Briefly: Displacement of [3H]-diprenorphine from recombinant DOR (unknown origin) expressed in rat C6 cells.
The subject of the next experiment is Mus musculus. Description: Antinociceptive activity in sc dosed mouse by PPQ abdominal stretch assay. To be noted: Abdomen.

On to `CO[C@]12CC[C@@]3(C[C@@H]1[C@](C)(O)C(C)C)[C@H]1Cc4ccc(O)c5c4[C@@]3(CCN1CC1CC1)[C@H]2O5`, for which affinity on Mu-type opioid receptor was put at a Ki of 0.6 nM. This compound also came in with an IC50 in experiment [1] of 0.52 nM.
On Mu-type opioid receptor, `CCCCC[C@](C)(O)[C@H]1C[C@@]23CC[C@]1(OC)[C@@H]1Oc4c(O)ccc5c4[C@@]12CCN(CC1CC1)[C@@H]3C5` displayed a Ki of 2.7 nM.
`CCC[C@](C)(O)[C@H]1C[C@@]23CC[C@]1(OC)[C@@H]1Oc4c(O)ccc5c4[C@@]12CCN(CC1CC1)[C@@H]3C5` gave a Ki on Mu-type opioid receptor of 1.3 nM. Besides, it took 0.49 nM to reach half-maximal inhibition in experiment [1] (IC50).
On to `CCCCC[C@@](C)(O)[C@H]1C[C@@]23CC[C@]1(OC)[C@@H]1Oc4c(O)ccc5c4[C@@]12CCN(CC1CC1)[C@@H]3C5`, for which the Ki at Mu-type opioid receptor is 2.4 nM. This compound also yielded a 50% inhibitory concentration (IC50) in experiment [1] of 12.3 nM.
Turning to `CO[C@]12CC[C@@]3(C[C@@H]1[C@](C)(O)CC(C)C)[C@H]1Cc4ccc(O)c5c4[C@@]3(CCN1CC1CC1)[C@H]2O5` [listing 1 of 2 here], the Ki in experiment [2] worked out at 0.34 nM.
Take `CO[C@]12CC[C@@]3(C[C@@H]1[C@](C)(O)CC(C)C)[C@H]1Cc4ccc(O)c5c4[C@@]3(CCN1CC1CC1)[C@H]2O5` [listing 2 of 2 here]: in the experiment on Mus musculus, the ED50 was found to be 0.02 mg/kg.
On to `CO[C@]12CC[C@@]3(C[C@@H]1[C@](C)(O)CCC(C)C)[C@H]1Cc4ccc(O)c5c4[C@@]3(CCN1CC1CC1)[C@H]2O5` [listing 1 of 2 here], for which the ED50 in the experiment with Mus musculus was 0.023 mg/kg.
`CCC[C@@](C)(O)[C@H]1C[C@@]23CC[C@]1(OC)[C@@H]1Oc4c(O)ccc5c4[C@@]12CCN(CC1CC1)[C@@H]3C5` displayed a Ki at Mu-type opioid receptor of 0.9 nM.
With `CO[C@]12CC[C@@]3(C[C@@H]1[C@](C)(O)CCC(C)C)[C@H]1Cc4ccc(O)c5c4[C@@]3(CCN1CC1CC1)[C@H]2O5` [listing 2 of 2 here], in experiment [2], the Ki is 0.42 nM.

For the origin of these results see ChEMBL document CHEMBL2331145, “Orvinols with mixed kappa/mu opioid receptor agonist activity” (2013).
